From patent US20200102534A1

Molecular target: PD-1 (Homo sapiens (Human)) (UniProt Q15116)
Experiment: flow cytometry of the TCR-T cells with 500 µg/mL fluorescently labeled antibody in PBS

monoclonal antibody drug Keytruda
percent of cells blocked: 79.1%
